# From US5219851A, “Tetrahydroisoquinoline-type renin inhibiting peptides” (Warner-Lambert Company, priority 1991, dated 1993)
# Protein sequences, listed by entry. Tags and fused reporters are not part of them. Residues count along the entry.
# UniProt P00797, 67-406 limits assumed: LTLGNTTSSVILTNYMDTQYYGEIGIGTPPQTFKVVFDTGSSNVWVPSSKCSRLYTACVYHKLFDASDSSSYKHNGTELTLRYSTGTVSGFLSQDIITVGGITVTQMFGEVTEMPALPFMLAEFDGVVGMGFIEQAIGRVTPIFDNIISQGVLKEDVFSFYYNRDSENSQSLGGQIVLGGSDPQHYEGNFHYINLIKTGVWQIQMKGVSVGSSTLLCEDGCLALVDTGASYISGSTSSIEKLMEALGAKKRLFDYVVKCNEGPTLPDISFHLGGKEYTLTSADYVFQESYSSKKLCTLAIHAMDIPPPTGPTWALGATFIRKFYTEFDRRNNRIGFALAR
# Target: renin (Homo sapiens, UniProt P00797)
# Assay: in vitro renin inhibitory activity, radioimmunoassay for angiotensin I
# Details: read-out: IC50 Renin; incubated 2 hours at 37° C. with angiotensinogen
# Experimental: The effectiveness of the aforementioned compounds is determined by a test for in vitro renin inhibitory activity. This activity is determined by a standard radioimmunoassay for angiotensin I. In this assay the enzyme, renin, incubated for 2 hours at 37° C. in the presence of a substrate, angiotensinogen, generates the product, angiotensin I. Test compounds are added to the incubation mixture. Relative activity is reported as the IC50, which is the molar concentration of test compound causing a 50% inhibition of the renin activity.
compound,measurement,value
CC(C)CC(O)C(O)C(CC1CCCCC1)NC(=O)CNC(=O)C1Cc2ccccc2CN1S(=O)(=O)N1CCOCC1 (stereo not shown),IC50,1.01 µM
